Source: patent publication US9440982B2 (Eolas Therapeutics, Inc., priority 2012, dated 2016)

Chains of the proteins cited; added tags and fusions are not shown.
UniProt O43614, whole entry: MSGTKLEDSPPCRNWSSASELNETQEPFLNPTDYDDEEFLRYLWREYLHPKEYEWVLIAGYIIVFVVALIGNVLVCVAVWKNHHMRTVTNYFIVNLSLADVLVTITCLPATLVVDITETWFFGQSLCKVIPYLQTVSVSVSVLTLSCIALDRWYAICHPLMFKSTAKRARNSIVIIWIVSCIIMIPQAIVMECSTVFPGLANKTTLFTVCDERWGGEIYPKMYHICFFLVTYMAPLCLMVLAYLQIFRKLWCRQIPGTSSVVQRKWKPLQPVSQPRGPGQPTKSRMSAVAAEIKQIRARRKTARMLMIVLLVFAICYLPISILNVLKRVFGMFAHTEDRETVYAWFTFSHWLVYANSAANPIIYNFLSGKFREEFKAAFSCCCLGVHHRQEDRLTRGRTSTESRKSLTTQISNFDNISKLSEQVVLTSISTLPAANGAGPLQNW

Each molecule was assayed against T1, OX2 (Homo sapiens, UniProt O43614) (assay: Orexin receptor cell-based functional assay, [Ca2+]i by FLIPR, CHO-OX2 cells). Conditions: CHO-OX2 cells, [Ca2+]i by FLIPR, antagonist dose-range 0.1 nM-10 μM, EC90 of OXA; read-out: OX2.
T1 construct: expressed in transfected cells; host or cells: CHO (CHO-OX2, kept under selection antibiotic)
For `Cc1nc(C(=O)N2CCC[C@@H](C)[C@H]2CNc2nc3cc(Cl)ccc3o2)c(-c2ccc(F)cc2)s1` [Example A84, ((2S,3R)-2-(((5-Chlorobenzo[d]oxazol-2-yl)amino)methyl)-3-methylpiperidin-1-yl)(5-(4-fluorophenyl)-2-methylthiazol-4-yl)methanone], the IC50 was over 4 µM.
`Cc1nc(C(=O)N2CCC[C@@H](C)[C@H]2CNc2ccc(C(F)(F)F)cn2)c(-c2ccc(F)cc2)s1` [Example A85, (5-(4-Fluorophenyl)-2-methylthiazol-4-yl)((2S,3R)-3-methyl-2-(((5-(trifluoromethyl)pyridin-2-yl)amino)methyl)piperidin-1-yl)methanone] showed an IC50 of over 5 µM.
In the case of `Cc1ccc(-c2cnn(C)c2)c(C(=O)N2CCC[C@@H](C)[C@H]2CNc2cccc(C)n2)c1` [Example A87, ((2S,3R)-3-Methyl-2-(((6-methylpyridin-2-yl)amino)methyl)piperidin-1-yl)(5-methyl-2-(1-methyl-1H-pyrazol-4-yl)phenyl)methanone], the IC50 is reported as over 4 µM.
`Cc1ccc(-n2nccn2)c(C(=O)N2CCC[C@@H](C)[C@H]2CNc2ncccc2C(F)(F)F)c1` [Example A88, ((2S,3R)-3-Methyl-2-(((3-(trifluoromethyl)pyridin-2-yl)amino)methyl)piperidin-1-yl)(5-methyl-2-(2H-1,2,3-triazol-2-yl)phenyl)methanone] was tested, and the IC50 was 1.8 µM.
Molecule `Cc1ccc(-n2nccn2)c(C(=O)N2CCC[C@@H](C)[C@H]2CNc2ncccc2C#N)c1` [Example A90, 2-((((2S,3R)-3-Methyl-1-(5-methyl-2-(2H-1,2,3-triazol-2-yl)benzoyl)piperidin-2-yl)methyl)amino)nicotinonitrile] has an IC50 of over 5 µM.
With `Cc1ccc(-n2nccn2)c(C(=O)N2CCC[C@@H](C)[C@H]2CNc2ncc(Cl)cc2F)c1` [Example A92, ((2S,3R)-2-(((5-Chloro-3-fluoropyridin-2-yl)amino)methyl)-3-methylpiperidin-1-yl)(5-methyl-2-(2H-1,2,3-triazol-2-yl)phenyl)methanone] the IC50 was over 5 µM.
`Cc1ccc(-c2cnn(C)c2)c(C(=O)N2CCC[C@@H](C)[C@H]2CNc2ncccc2C(F)(F)F)c1` [Example A93, ((2S,3R)-3-Methyl-2-(((3-(trifluoromethyl)pyridin-2-yl)amino)methyl)piperidin-1-yl)(5-methyl-2-(1-methyl-1H-pyrazol-4-yl)phenyl)methanone] was tested, and the IC50 was over 5 µM.
In the case of `COc1cccnc1NC[C@@H]1[C@H](C)CCCN1C(=O)c1cc(C)ccc1-n1nccn1` [Example A98, ((2S,3R)-2-(((3-Methoxypyridin-2-yl)amino)methyl)-3-methylpiperidin-1-yl)(5-methyl-2-(2H-1,2,3-triazol-2-yl)phenyl)methanone], the IC50 is reported as over 5 µM.
In the case of `Cc1ccc(-n2nccn2)c(C(=O)N2CCC[C@@H](C)[C@H]2CNc2ncccc2C)c1` [Example A99, ((2S,3R)-3-Methyl-2-(((3-methylpyridin-2-yl)amino)methyl)piperidin-1-yl)(5-methyl-2-(2H-1,2,3-triazol-2-yl)phenyl)methanone], the IC50 is reported as over 5 µM.
For `Cc1ccc(-c2cnn(C)c2)c(C(=O)N2CCC[C@@H](C)[C@H]2CNc2ncccc2C)c1` [Example A100, ((2S,3R)-3-Methyl-2-(((3-methylpyridin-2-yl)amino)methyl)piperidin-1-yl)(5-methyl-2-(1-methyl-1H-pyrazol-4-yl)phenyl)methanone], the IC50 was 1.2 µM.
In the case of `Cc1ccc(-c2cccc(C)n2)c(C(=O)N2CCC[C@@H](C)[C@H]2CNc2ccc(C(F)(F)F)cn2)c1` [Example A104, ((2S,3R)-3-Methyl-2-(((5-(trifluoromethyl)pyridin-2-yl)amino)methyl)piperidin-1-yl)(5-methyl-2-(6-methylpyridin-2-yl)phenyl)methanone], the IC50 is reported as 1.9 µM.
For `Cc1ccc(-n2cc(C)cn2)c(C(=O)N2CCC[C@@H](C)[C@H]2CNc2ccc(C(F)(F)F)cn2)c1` [Example A107, ((2S,3R)-3-Methyl-2-(((5-(trifluoromethyl)pyridin-2-yl)amino)methyl)piperidin-1-yl)(5-methyl-2-(4-methyl-1H-pyrazol-1-yl)phenyl)methanone], the IC50 was 0.14 µM.
Work on `Cc1ccc(-n2ccc(C)n2)c(C(=O)N2CCC[C@@H](C)[C@H]2CNc2ccc(C(F)(F)F)cn2)c1` [Example A108, ((2S,3R)-3-Methyl-2-(((5-(trifluoromethyl)pyridin-2-yl)amino)methyl)piperidin-1-yl)(5-methyl-2-(3-methyl-1H-pyrazol-1-yl)phenyl)methanone] yielded an IC50 of 1.8 µM.
`Cc1nc(C(=O)N2CCC[C@@H](C)[C@H]2CNc2ccc(C(F)(F)F)cn2)c(-c2cccc(F)c2)s1` [Example A109, (5-(3-Fluorophenyl)-2-methylthiazol-4-yl)((2S,3R)-3-methyl-2-(((5-(trifluoromethyl)pyridin-2-yl)amino)methyl)piperidin-1-yl)methanone] showed an IC50 of over 4 µM.
Molecule `CCn1cc(-c2ccc(C)cc2C(=O)N2CCC[C@@H](C)[C@H]2CNc2ccc(C(F)(F)F)cn2)cn1` [Example A110, (2-(1-Ethyl-1H-pyrazol-4-yl)-5-methylphenyl)((2S,3R)-3-methyl-2-(((5-(trifluoromethyl)pyridin-2-yl)amino)methyl)piperidin-1-yl)methanone] has an IC50 of 0.69 µM.
For `Cc1ccc(-c2cnn(C(C)C)c2)c(C(=O)N2CCC[C@@H](C)[C@H]2CNc2ccc(C(F)(F)F)cn2)c1` [Example A111, (2-(1-Isopropyl-1H-pyrazol-4-yl)-5-methylphenyl)((2S,3R)-3-methyl-2-(((5-(trifluoromethyl)pyridin-2-yl)amino)methyl)piperidin-1-yl)methanone], the IC50 was 0.86 µM.
`Cc1ccc(-n2ncc(C)n2)c(C(=O)N2CCC[C@@H](C)[C@H]2CNc2ccc(C(F)(F)F)cn2)c1` [Example A112, ((2S,3R)-3-Methyl-2-(((5-(trifluoromethyl)pyridin-2-yl)amino)methyl)piperidin-1-yl)(5-methyl-2-(4-methyl-2H-1,2,3-triazol-2-yl)phenyl)methanone] gave an IC50 of 0.25 µM.
`Cc1ccc(-n2ccc(C)n2)c(C(=O)N2CCC[C@@H](C)[C@H]2CNc2nc3cc(Cl)ccc3o2)c1` [Example A115, ((2S,3R)-2-(((5-Chlorobenzo[d]oxazol-2-yl)amino)methyl)-3-methylpiperidin-1-yl)(5-methyl-2-(3-methyl-1H-pyrazol-1-yl)phenyl)methanone] gave an IC50 of over 4 µM.
For `Cc1ccc(-n2ncc(C)n2)c(C(=O)N2CCC[C@@H](C)[C@H]2CNc2nc3cc(Cl)ccc3o2)c1` [Example A116, ((2S,3R)-2-(((5-Chlorobenzo[d]oxazol-2-yl)amino)methyl)-3-methylpiperidin-1-yl)(5-methyl-2-(4-methyl-2H-1,2,3-triazol-2-yl)phenyl)methanone], the IC50 was 1.1 µM.
`Cc1ccc(-c2ccccn2)c(C(=O)N2CCC[C@@H](C)[C@H]2CNc2ccc(Cl)cn2)c1` [Example A117, ((2S,3R)-2-(((5-chloropyridin-2-yl)amino)methyl)-3-methylpiperidin-1-yl)(5-methyl-2-(pyridin-2-yl)phenyl)methanone] was tested, and the IC50 was over 5 µM.
`Cc1ccc(-c2ccc(C)cc2C(=O)N2CCC[C@@H](C)[C@H]2CNc2ccc(C(F)(F)F)cn2)nc1` [Example A118, ((2S,3R)-3-Methyl-2-(((5-(trifluoromethyl)pyridin-2-yl)amino)methyl)piperidin-1-yl)(5-methyl-2-(5-methylpyridin-2-yl)phenyl)methanone] was tested, and the IC50 was 2.2 µM.
Molecule `Cc1ccc(-n2nccn2)c(C(=O)N2CCC[C@@H](C)[C@H]2CNc2ccc(C(F)(F)F)nn2)c1` [Example A119, ((2S,3R)-3-Methyl-2-(((6-(trifluoromethyl)pyridazin-3-yl)amino)methyl)piperidin-1-yl)(5-methyl-2-(2H-1,2,3-triazol-2-yl)phenyl)methanone] has an IC50 of over 5 µM.
`Cc1ccc(-n2ccc(C)n2)c(C(=O)N2CCC[C@@H](C)[C@H]2CNc2ccc(Cl)cn2)c1` [Example A120, ((2S,3R)-2-(((5-Chloropyridin-2-yl)amino)methyl)-3-methylpiperidin-1-yl)(5-methyl-2-(3-methyl-1H-pyrazol-1-yl)phenyl)methanone] was tested, and the IC50 was over 5 µM.
`Cc1ccc(-n2ncc(C)n2)c(C(=O)N2CCC[C@@H](C)[C@H]2CNc2ccc(Cl)cn2)c1` [Example A121, ((2S,3R)-2-(((5-Chloropyridin-2-yl)amino)methyl)-3-methylpiperidin-1-yl)(5-methyl-2-(4-methyl-2H-1,2,3-triazol-2-yl)phenyl)methanone] was tested, and the IC50 was over 5 µM.
In the case of `Cc1ccc(-n2nccn2)c(C(=O)N2CCC[C@@H](C)[C@H]2CNc2ncc3cc(Br)ccc3n2)c1` [Example A122, ((2S,3R)-2-(((6-Bromoquinazolin-2-yl)amino)methyl)-3-methylpiperidin-1-yl)(5-methyl-2-(2H-1,2,3-triazol-2-yl)phenyl)methanone], the IC50 is reported as over 5 µM.
In the case of `Cc1ccc(-n2nccn2)c(C(=O)N2CCC[C@@H](C)[C@H]2CNc2nc(C(F)(F)F)cs2)c1` [Example A123, ((2S,3R)-3-Methyl-2-(((4-(trifluoromethyl)thiazol-2-yl)amino)methyl)piperidin-1-yl)(5-methyl-2-(2H-1,2,3-triazol-2-yl)phenyl)methanone], the IC50 is reported as over 5 µM.
`Cc1ccc(-n2ncc(C)n2)c(C(=O)N2CCC[C@@H](C)[C@H]2CNc2ccc(C(F)(F)F)nn2)c1` [Example A125, ((2S,3R)-3-Methyl-2-(((6-(trifluoromethyl)pyridazin-3-yl)amino)methyl)piperidin-1-yl)(5-methyl-2-(4-methyl-2H-1,2,3-triazol-2-yl)phenyl)methanone] showed an IC50 of over 5 µM.
`COc1ccc(NC[C@@H]2[C@H](C)CCCN2C(=O)c2cc(C)ccc2-n2nccn2)nc1` [Example A126, ((2S,3R)-2-(((5-Methoxypyridin-2-yl)amino)methyl)-3-methylpiperidin-1-yl)(5-methyl-2-(2H-1,2,3-triazol-2-yl)phenyl)methanone] was tested, and the IC50 was over 5 µM.
`Cc1ccc(-n2nccn2)c(C(=O)N2CCC[C@@H](C)[C@H]2CNc2ccc(C#N)cn2)c1` [Example A127, 6-((((2S,3R)-3-Methyl-1-(5-methyl-2-(2H-1,2,3-triazol-2-yl)benzoyl)piperidin-2-yl)methyl)amino)nicotinonitrile] gave an IC50 of over 5 µM.

Same assay, conditions: Table 6; racemate vs enantiomers; read-out: OX2 IC50
`Cc1nc(C(=O)N2CCC[C@@H](C)[C@H]2CNc2ccc(C(F)(F)F)cn2)c(-c2ccc(F)cc2)s1` [Example A85, (5-(4-Fluorophenyl)-2-methylthiazol-4-yl)((2S,3R)-3-methyl-2-(((5-(trifluoromethyl)pyridin-2-yl)amino)methyl)piperidin-1-yl)methanone] showed an IC50 of over 5 µM.
